# Reference: ChEMBL document CHEMBL1148279, “Effects of bisphosphonates on the growth of Entamoeba histolytica and Plasmodium species in vitro and in vivo” (J Med Chem, 2004)
# Assay: Therapeutic index was expressed as ratio of LD50 for KB cell line to IC50 against Plasmodium falciparum
# Assay type: cell-based
# Conditions: human, KB cells; read-out: TI
compound,measurement,value
CCn1c2ccccc2c2ccc(NC(P(=O)(O)O)P(=O)(O)O)cc21,selectivity ratio,6.83
